Reference: ChEMBL document CHEMBL5512675, “Design of Selective PARP-1 Inhibitors and Antitumor Studies” (J Med Chem, 2024)
Values belong to the compound of their own block, whether it stands above or below them.

Amino acid sequences for entries named in this document (tags omitted). A change or cut given only in a name is not applied to a line headed by its entry.
UniProt P09874, whole entry: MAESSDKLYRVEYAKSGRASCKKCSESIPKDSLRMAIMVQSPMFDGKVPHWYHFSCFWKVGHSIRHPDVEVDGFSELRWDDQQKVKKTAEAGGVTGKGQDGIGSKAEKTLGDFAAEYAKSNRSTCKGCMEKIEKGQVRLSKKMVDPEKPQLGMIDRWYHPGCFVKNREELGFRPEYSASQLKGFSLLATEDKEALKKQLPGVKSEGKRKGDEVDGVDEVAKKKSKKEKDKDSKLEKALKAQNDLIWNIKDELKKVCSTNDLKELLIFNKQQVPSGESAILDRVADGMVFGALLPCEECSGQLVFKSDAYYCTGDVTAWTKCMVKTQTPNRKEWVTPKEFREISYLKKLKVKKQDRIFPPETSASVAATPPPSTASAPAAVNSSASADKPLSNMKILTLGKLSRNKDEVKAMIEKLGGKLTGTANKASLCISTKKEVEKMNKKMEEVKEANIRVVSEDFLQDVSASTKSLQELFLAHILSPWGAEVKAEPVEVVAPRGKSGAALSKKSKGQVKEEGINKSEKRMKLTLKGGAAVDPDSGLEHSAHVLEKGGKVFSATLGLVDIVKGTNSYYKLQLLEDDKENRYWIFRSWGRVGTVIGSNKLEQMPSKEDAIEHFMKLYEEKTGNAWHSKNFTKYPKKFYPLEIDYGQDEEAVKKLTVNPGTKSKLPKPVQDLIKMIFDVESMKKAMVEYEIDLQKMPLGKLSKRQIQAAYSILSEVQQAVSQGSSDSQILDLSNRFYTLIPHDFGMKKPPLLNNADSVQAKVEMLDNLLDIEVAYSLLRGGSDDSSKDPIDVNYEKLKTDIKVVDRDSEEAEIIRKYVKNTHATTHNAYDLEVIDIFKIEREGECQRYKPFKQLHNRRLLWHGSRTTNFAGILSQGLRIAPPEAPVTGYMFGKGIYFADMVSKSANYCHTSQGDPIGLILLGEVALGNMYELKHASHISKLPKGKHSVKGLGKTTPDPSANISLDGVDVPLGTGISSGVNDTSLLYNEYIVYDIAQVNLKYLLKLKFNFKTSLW
UniProt Q9UGN5: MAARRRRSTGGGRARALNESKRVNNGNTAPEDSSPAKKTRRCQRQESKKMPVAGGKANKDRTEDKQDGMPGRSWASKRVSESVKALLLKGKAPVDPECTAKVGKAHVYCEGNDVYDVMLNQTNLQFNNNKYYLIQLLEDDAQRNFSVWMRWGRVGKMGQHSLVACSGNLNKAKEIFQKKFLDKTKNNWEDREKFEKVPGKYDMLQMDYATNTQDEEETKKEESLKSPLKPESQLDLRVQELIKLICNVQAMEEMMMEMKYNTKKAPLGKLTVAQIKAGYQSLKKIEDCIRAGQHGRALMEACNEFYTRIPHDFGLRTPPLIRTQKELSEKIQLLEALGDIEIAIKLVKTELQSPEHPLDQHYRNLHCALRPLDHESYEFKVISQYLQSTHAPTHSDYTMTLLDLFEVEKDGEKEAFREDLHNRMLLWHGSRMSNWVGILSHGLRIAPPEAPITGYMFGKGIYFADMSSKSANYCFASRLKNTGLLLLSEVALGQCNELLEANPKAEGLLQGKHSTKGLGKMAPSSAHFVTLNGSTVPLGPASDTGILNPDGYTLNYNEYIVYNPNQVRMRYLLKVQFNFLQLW

Assays:
[1] = molecular target: Poly [ADP-ribose] polymerase 1 (Homo sapiens, UniProt P09874); conditions: dose 100.0 nM, time 30.0 min
in vivo [2] = conditions: male, Sprague-Dawley, rat, po, 20 mg/kg
in vivo [3] = conditions: male, Sprague-Dawley, rat, iv, 4 mg/kg
in vivo [4] = conditions: male, Sprague-Dawley, rat, iv, 4 mg/kg; remark: listed apart in the source
in vivo [5] = conditions: male, Sprague-Dawley, rat, iv, 4 mg/kg; remark: listed apart in the source
in vivo [6] = conditions: male, Sprague-Dawley, rat, iv, 4 mg/kg; remark: listed apart in the source
in vivo [7] = conditions: male, Sprague-Dawley, rat, po, 20 mg/kg; remark: listed apart in the source
SK-OV-3 [8] = experiment: animal or person; conditions: Mus musculus, SK-OV-3, po, 744 h, read-out: TGI
in vivo [9] = conditions: male, Sprague-Dawley, rat, iv, 4 mg/kg; remark: listed apart in the source
[10] = molecular target: Poly [ADP-ribose] polymerase 2 (Homo sapiens, UniProt Q9UGN5); experiment: Inhibition of GST-tagged human PARP2 incubated for 30 mins by chemiluminescence based UV/visible spectrophotometric analysis
SK-OV-3 [11] = experiment: animal or person; conditions: Mus musculus, SK-OV-3, po, 744 h, read-out: TGI; remark: listed apart in the source
in vivo [12] = conditions: male, Sprague-Dawley, rat, po, 20 mg/kg; remark: listed apart in the source
SK-OV-3 [13] = experiment: cells; conditions: Homo sapiens, SK-OV-3, 36 h, read-out: Activity
in vivo [14] = conditions: male, Sprague-Dawley, rat, po, 20 mg/kg; remark: listed apart in the source
in vivo [15] = conditions: male, Sprague-Dawley, rat, iv, 4 mg/kg; remark: listed apart in the source
in vivo [16] = conditions: male, Sprague-Dawley, rat, iv, 4 mg/kg; remark: listed apart in the source
in vivo [17] = conditions: male, Sprague-Dawley, rat, iv, 4 mg/kg; remark: listed apart in the source
in vivo [18] = conditions: male, Sprague-Dawley, rat, po, 20 mg/kg; remark: listed apart in the source
SK-OV-3 [19] = experiment: cells; conditions: Homo sapiens, SK-OV-3, 36 h, read-out: Activity; remark: listed apart in the source
in vivo [20] = conditions: male, Sprague-Dawley, rat, po, 20 mg/kg; remark: listed apart in the source
SK-OV-3 [21] = experiment: cells; conditions: Homo sapiens, SK-OV-3, 36 h, read-out: Activity; remark: listed apart in the source
in vivo [22] = conditions: male, Sprague-Dawley, rat, po, 20 mg/kg; remark: listed apart in the source

inhibition [1]: 41%
Structure (SMILES): CCCCOc1c(Br)cc(/C=N/NC(N)=S)cc1OC

inhibition [1]: 35.4%
Structure (SMILES): COc1cc(/C=N/NC(N)=S)c(Br)c(Br)c1OCc1ccc(C)cc1

inhibition [1]: 42.6%
Structure (SMILES): COc1cc(-c2nc3c(C(N)=O)cccc3[nH]2)c(Br)c(Br)c1OC(C)=O

inhibition [1]: 42.5%
Structure (SMILES): COc1cc(/C=N/NC(N)=S)ccc1OS(=O)(=O)c1c(C)cc(C)cc1C

inhibition [1]: 35.1%
Structure (SMILES): COc1cc(/C=N/NC(N)=S)cc(Br)c1OC(=O)C(C)(C)C

inhibition [1]: 43.2%
Structure (SMILES): COc1cc(/C=N/NC(N)=S)c(Br)c(Br)c1OC(=O)c1ccco1

inhibition [1]: 66%
Structure (SMILES): CCCS(=O)(=O)Oc1c(Br)cc(-c2nc3c(C(N)=O)cccc3[nH]2)cc1OC

inhibition [1]: 43.5%
Structure (SMILES): COc1cc(-c2nc3c(C(N)=O)cccc3[nH]2)cc(Br)c1OC(=O)CCBr

inhibition [1]: 47.4%
Structure (SMILES): COc1cc(/C=N/NC(N)=S)c(Br)c(Br)c1OCc1ccc(Br)cc1

inhibition [1]: 28.3%
Structure (SMILES): COc1cc(/C=N/NC(N)=S)cc(Br)c1OC(C)=O

inhibition [1]: 13.5%
Structure (SMILES): COc1cc(/C=N/NC(N)=S)ccc1OS(=O)(=O)C(F)(F)F

inhibition [1]: 62.9%
Structure (SMILES): COc1cc(-c2nc3c(C(N)=O)cccc3[nH]2)cc(Br)c1OC(=O)C(C)(C)C

inhibition [1]: 8.21%
Structure (SMILES): COc1cc(/C=N/NC(N)=S)c(Br)c(Br)c1OC(=O)c1ccc(Br)cc1

inhibition [1]: 23.4%
Structure (SMILES): COc1cc(/C=N/NC(N)=S)c(Br)c(Br)c1OC(=O)c1ccc(CCl)cc1

inhibition [1]: 23.7%
Structure (SMILES): CCCS(=O)(=O)Oc1c(OC)cc(/C=N/NC(N)=S)c(Br)c1Br

inhibition [1]: 13.5%
Structure (SMILES): COc1cc(/C=N/NC(N)=S)cc(Br)c1OS(=O)(=O)C(F)(F)F

Second part, the compound before the results:

Structure (SMILES): COc1cc(-c2nc3c(C(N)=O)cccc3[nH]2)ccc1OC(=O)c1ccccc1C(F)(F)F
inhibition [1]: 40.1%

Structure (SMILES): COc1cc(-c2nc3c(C(N)=O)cccc3[nH]2)cc(Br)c1OS(=O)(=O)c1cccc2ccccc12
inhibition [1]: 40.3%

Structure (SMILES): COc1cc(-c2nc3c(C(N)=O)cccc3[nH]2)c(Br)c(Br)c1OC
inhibition [1]: 41.7%

Structure (SMILES): COc1cc(-c2nc3c(C(N)=O)cccc3[nH]2)c(Br)c(Br)c1OCc1ccc(Br)cc1
inhibition [1]: 42.8%

Structure (SMILES): COc1cc(-c2nc3c(C(N)=O)cccc3[nH]2)c(Br)c(Br)c1OS(=O)(=O)c1ccc(NC(C)=O)cc1
inhibition [1]: 45.7%

Structure (SMILES): COc1cc(-c2nc3c(C(N)=O)cccc3[nH]2)ccc1OS(=O)(=O)c1cccc(Br)c1
inhibition [1]: < 5%

Structure (SMILES): COc1cc(-c2nc3c(C(N)=O)cccc3[nH]2)ccc1OS(=O)(=O)c1ccc(Br)cc1
inhibition [1]: 32.5%

Structure (SMILES): COc1cc(-c2nc3c(C(N)=O)cccc3[nH]2)cc(Br)c1OS(=O)(=O)c1cccc(Br)c1
inhibition [1]: 41.9%

Structure (SMILES): COc1cc(-c2nc3c(C(N)=O)cccc3[nH]2)cc(Br)c1OS(=O)(=O)c1ccccc1C
AUC(0-t) (in vivo [2]): 88.8 ng·h/mL | Cmax (in vivo [3]): 2210 ng/mL | Tmax (in vivo [4]): 4.8 min | MRT (in vivo [5]): 16.8 min | Vd (in vivo [6]): 1.19 L/kg | bioavailability (in vivo [7]): 2.49% | inhibition in vivo at 50 mg/kg (SK-OV-3 [8]): 77.3% | clearance (in vivo [9]): 67 mL/min/kg | IC50 [10]: 1.93 µM | inhibition in vivo at 25 mg/kg (SK-OV-3 [11]): 66.3% | Cmax (in vivo [12]): 42 ng/mL | viability at 20 µM (SK-OV-3 [13]): 36.5% | half-life (in vivo [14]): 94.2 min | half-life (in vivo [15]): 19.2 min | AUC(0-t) (in vivo [16]): 1030 ng·h/mL | AUC(0-inf) (in vivo [17]): 1040 ng·h/mL | Tmax (in vivo [18]): 30 min | viability at 10 µM (SK-OV-3 [19]): 51.8% | AUC(0-inf) (in vivo [20]): 103 ng·h/mL | viability at 5 µM (SK-OV-3 [21]): 73.9% | MRT (in vivo [22]): 102 min

Structure (SMILES): COc1cc(-c2nc3c(C(N)=O)cccc3[nH]2)cc(Br)c1OS(=O)(=O)c1c(C)cc(C)cc1C
inhibition [1]: 61.6%

Structure (SMILES): COc1cc(-c2nc3c(C(N)=O)cccc3[nH]2)c(Br)c(Br)c1OC(=O)CCBr
inhibition [1]: 36.4%

Structure (SMILES): CCc1ccc(C(=O)Oc2c(OC)cc(-c3nc4c(C(N)=O)cccc4[nH]3)c(Br)c2Br)cc1
inhibition [1]: 45.1%

Structure (SMILES): COc1cc(-c2nc3c(C(N)=O)cccc3[nH]2)c(Br)c(Br)c1OCc1ccccc1C(F)(F)F
inhibition [1]: 42.5%

Structure (SMILES): COc1cc(-c2nc3c(C(N)=O)cccc3[nH]2)c(Br)c(Br)c1OS(=O)(=O)c1ccc(OC(F)(F)F)cc1
inhibition [1]: 44.3%

Structure (SMILES): COc1cc(-c2nc3c(C(N)=O)cccc3[nH]2)ccc1OS(=O)(=O)c1c(C)cc(C)cc1C
inhibition [1]: < 5%

Structure (SMILES): COc1cc(-c2nc3c(C(N)=O)cccc3[nH]2)cc(Br)c1OS(=O)(=O)c1ccc(I)cc1
inhibition [1]: 42.1%

Structure (SMILES): COc1cc(-c2nc3c(C(N)=O)cccc3[nH]2)c(Br)c(Br)c1OS(=O)(=O)c1ccc(C)cc1
inhibition [1]: 45.7%

Structure (SMILES): COc1cc(-c2nc3c(C(N)=O)cccc3[nH]2)c(Br)c(Br)c1OS(=O)(=O)c1ccc(F)c(Cl)c1
inhibition [1]: 48.1%

Structure (SMILES): COc1cc(-c2nc3c(C(N)=O)cccc3[nH]2)c(Br)c(Br)c1OC(=O)c1ccc(F)cc1
inhibition [1]: 47.8%

Structure (SMILES): COc1ccc(S(=O)(=O)Oc2c(Br)cc(-c3nc4c(C(N)=O)cccc4[nH]3)cc2OC)cc1
inhibition [1]: 44.1%
